Measured values as given in PubChem BioAssay AID720648 (The Scripps Research Institute Molecular Screening Center, 2013).
The entries are a selection whose mix differs from that of the whole data set. Activity calls are given as the source filed them.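 The calls were made as follows: active = inhibition above the mean of compounds lying between control limits plus 3 SD, set per campaign (cut at about 8.5% in these data); inactive = the rest.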

The chains behind the UniProt entries cited, without tags or fusion partners. Residues count along the entry.
UniProt P78536, 215-824 limits assumed: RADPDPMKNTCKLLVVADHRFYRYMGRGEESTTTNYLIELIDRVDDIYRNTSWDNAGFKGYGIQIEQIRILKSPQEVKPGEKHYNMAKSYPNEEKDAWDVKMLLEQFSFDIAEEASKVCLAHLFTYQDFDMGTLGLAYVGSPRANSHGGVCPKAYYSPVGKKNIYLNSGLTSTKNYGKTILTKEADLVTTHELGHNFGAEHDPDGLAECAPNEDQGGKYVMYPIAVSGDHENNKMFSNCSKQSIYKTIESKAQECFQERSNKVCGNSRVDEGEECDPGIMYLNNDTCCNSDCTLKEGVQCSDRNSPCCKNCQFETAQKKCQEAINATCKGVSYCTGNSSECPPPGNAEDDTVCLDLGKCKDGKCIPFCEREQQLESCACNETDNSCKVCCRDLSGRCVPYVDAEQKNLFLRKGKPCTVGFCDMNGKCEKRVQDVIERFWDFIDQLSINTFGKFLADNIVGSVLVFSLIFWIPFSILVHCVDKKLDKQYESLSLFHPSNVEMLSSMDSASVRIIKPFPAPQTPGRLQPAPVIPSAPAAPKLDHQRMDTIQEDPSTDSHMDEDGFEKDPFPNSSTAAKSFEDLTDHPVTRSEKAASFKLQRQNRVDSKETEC

What follows are compounds tested against Disintegrin and metalloproteinase domain-containing protein 17 (Homo sapiens) (UniProt P78536) (assay: inhibition of ADAM17 peptide cleavage – biochemical, QFRET, primary screen (AID 720648;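 also: 0% = DMSO-only wells as the low control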)). Settings: recombinant ADAM17, EDANS/DABCYL FRET peptide cleavage; at 6.95 µM; active compounds read high.
For `CCC(=O)N(c1ccccc1)C1(COC)CCN(CCn2nnn(CC)c2=O)CC1`, the inhibition was inactive: 1.21%.
With `CCC(=O)N(c1ccccc1)C1(COC)CCN(CCc2cccs2)CC1` the inhibition was inactive: -0.49%.
